# Apparent affinities of Ab-91 variants for a coronavirus HR2 peptide

Data: MIT Lincoln Laboratory AlphaSeq set, Engelhart et al. 2022, doi:10.1038/s41597-022-01779-4, as distributed in FLAb.

Binding partner: SARS-CoV-2 spike HR2 peptide, sequence PDVDLGDISGINAS.

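The parent was found by panning a naive human phage display library on the peptide. AAYL51 was designed without a model: most single CDR substitutions and a random sample of double and triple ones. In AlphaSeq, yeast of one mating type display the scFv and yeast of the other type display the target. Binding brings cells together so that they mate, and sequencing counts the barcode pairs among the diploids. Each replicate has its own calibration line, from reference interactions of the BCL2 family. The assay was run in three technical replicates.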

Ab-91 is the parent antibody, in scFv form: VL, then a 15-residue (Gly4Ser)3 linker, then VH. The light chain is unchanged in all variants.
VL: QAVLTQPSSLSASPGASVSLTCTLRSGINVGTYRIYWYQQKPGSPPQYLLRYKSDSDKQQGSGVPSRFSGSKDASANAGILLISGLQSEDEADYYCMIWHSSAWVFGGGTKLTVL
VH: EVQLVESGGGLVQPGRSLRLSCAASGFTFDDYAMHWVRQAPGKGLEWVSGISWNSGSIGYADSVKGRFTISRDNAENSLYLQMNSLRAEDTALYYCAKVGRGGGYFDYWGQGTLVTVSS

Variants are written as CDR1, CDR2 and CDR3 of the heavy chain (limits as in the source). Parent: GFTFDDYAMH, GISWNSGSIGYADSVK, VGRGGGYFDY.
Scale: log10 of Kd in nM, estimated from mating counts; low values are strong binders.
Where no diploid with the target was found in that replicate, the entry reads "nd": below detection, most likely a poor binder, though not proof of it.
Parent in this assay: reference entry 1.86, copy in this library 0.88.

| CDR-H1 | CDR-H2 | CDR-H3 | log10 Kd, replicates | empty controls |
|---|---|---|---|---|
| GFTFDDYAMH | GISWNSGSIEWADSVK | VGRGGGYFDI | nd / nd / nd | 0 of 9 |
| GFTFDRYAMH | GISWNSGSIGEADSVK | VGRGGGYFDY | 1.36 / 1.22 / 0.35 | 0 of 9 |
| IRTFDDWAMH | GISWNSGSIGYADSVK | VGRGGGYFDY | nd / nd / nd | 0 of 9 |
| GFTFDDYAMH | SISWNSGAIGYADSVK | VGRGGGYFWY | nd / nd / nd | 0 of 9 |
| GFTFDDYAMH | GISWNSGSIGYADSVA | VGYGGGYFDY | 2.06 / 2.07 / 1.72 | 4 of 9 (3.87) |
| GFTFNDYAMH | GISWNSGCIGYADSAK | VGRGGGYFDY | 3.82 / 3.85 / 3.32 | 1 of 9 (3.71) |
| GFTFDDYAMH | GISWNSGSIGYADRVK | VGRGFGWFDY | 2.72 / 2.95 / 2.18 | 0 of 9 |
| GFTNDDYAMH | GISWNSGSIGYARSVK | VPRGGGYFDY | nd / nd / nd | 0 of 9 |
| GFTFDDYAMI | GISWNSGSIGYADSVK | VGRGGGYVDY | 6.22 / 3.97 / nd | 5 of 9 (4.51) |
| GFTFDDYAMH | GDSKNSGSIGYADSVK | VGRGFGYFDY | 3.91 / 4.79 / nd | 4 of 9 (4.69) |
| GFTFFDYAMH | GISWNSGSIGYAKSVK | AGRGGGYFDY | nd / nd / nd | 0 of 9 |
| GFTFDDYAMH | GISWNSGSIGYMDSVK | VTRFGGYFDY | nd / nd / nd | 1 of 9 (3.76) |
| AFTFDDYAMH | GISWNSGSDGYADSVK | VGGGGGYFDY | 1.88 / 1.89 / 1.57 | 2 of 9 (4.34) |
| GFTFDDYAMH | GISWNSGSIGYAVSVW | VGRVGGYFDY | nd / nd / nd | 1 of 9 (2.89) |
| GFTFDDYAMH | GWSWNSGSIGYADSVK | VNRGGGYFDY | nd / nd / nd | 0 of 9 |
| GFTFDDYKMH | GISWTSGSIGYADSVK | VGRGGGYFDY | 4.26 / nd / 4.30 | 2 of 9 (3.98) |
| GFTFDDYGMH | GISPNSGSIGYIDSVK | VGRGGGYFDY | 0.63 / 0.48 / -0.18 | 7 of 9 (5.62) |
| GFTFDDYAEH | GISWNSGSIGYADSVK | VGRGGGHFRY | nd / nd / nd | 0 of 9 |
| GFTFDDYAMH | YISWNSGHIGYADSVK | VGRGGGYFDN | nd / nd / nd | 1 of 9 (3.84) |
| GFTADDYARH | GISWNSGSIGYADSVK | VGRGGGYFDF | nd / nd / nd | 1 of 9 (3.57) |
| GFTFDDYAMH | IISKNSGSIGYADSDK | VGRGGGYFDY | 3.94 / nd / nd | 0 of 9 |
| GFTFDDYAMH | GISKCSGTIGYADSVK | VGRGGGYFDY | 4.33 / 5.92 / nd | 4 of 9 (4.66) |
| GFTFDDYAMY | GISWWCGSIGYADSVK | VGRGGGYFDY | nd / nd / nd | 1 of 9 (2.86) |
| GFTFDDYAQH | GISWNSGSIMYADYVK | VGRGGGYFDY | 4.69 / nd / nd | 1 of 9 (3.74) |
| GFTFDDYAMH | GISWNSGSIGYADSVK | GGRGGGYFDT | 3.59 / 3.65 / 3.65 | 1 of 9 (3.11) |
| GFTFEDYAMH | GISWNSGSIGYADSFK | VGRQGGYFDY | 1.48 / 1.68 / 1.48 | 0 of 9 |
| GFTFADYAMH | GISWNSGSIGYADSVK | VGRGIGYFDY | nd / nd / nd | 0 of 9 |
| CFTFDDYAMH | GISWNSKSIGYADSVK | VGRGGGYFTY | 2.69 / nd / nd | 0 of 9 |
| GFTFDDHAMH | GISWNSVSIGYADSVK | VGRGGGYFVY | nd / nd / nd | 0 of 9 |
| WFTFDDYAMF | GISRNSGSIGYADSVK | VGRGGGYFDY | nd / nd / nd | 1 of 9 (2.75) |
| SFTFKDYAMH | GIDWNSGSIGYADSVK | VGRGGGYFDY | nd / nd / nd | 0 of 9 |
| GFWFDDYAMH | GISWNKGSIGYADSVK | VGRGYGYFDY | nd / nd / nd | 0 of 9 |
| GFIFDDYAMH | GISANSGSIGYADSVG | VGRGGGYFDY | 1.65 / 1.51 / 1.34 | 4 of 9 (5.17) |
| GFTFDGYAMH | MISWNSGSCGYADSVK | VGRGGGYFDY | nd / nd / nd | 0 of 9 |
| GATFDDYAMH | GISWNSGSIGYADSVK | VGRGGGCDDY | nd / nd / nd | 0 of 9 |
| GFTFDDYAMH | GISWNSGSIGYADSVW | VNRGGGYFTY | 2.52 / nd / 3.13 | 0 of 9 |
| GFTFDDSAMH | GISWNSGSIGYADMVK | VGRGVGYFDY | nd / nd / nd | 0 of 9 |
| GFTFDDYEMH | GISWNSGSIGYADSVK | VHGGGGYFDY | 3.57 / 5.89 / nd | 4 of 9 (3.54) |
| GFTFRDYAMH | GISWNSGSIGYCDSVK | VGRGGGYSDY | nd / nd / nd | 0 of 9 |
| GFTFDDYAMH | GISWNSGSIGYADSVK | VRRGGGYFHK | 4.81 / 4.14 / 4.61 | 7 of 9 (5.06) |
| CFTFDDTAMH | GISWNWGSIGYADSVK | VGRGGGYFDY | 5.50 / nd / 4.33 | 0 of 9 |
| GFTFDDYAMH | GISWNKGSIGYRDSVK | PGRGGGYFDY | 4.19 / nd / 4.25 | 3 of 9 (4.62) |
| GFTFDCYAMH | GISWMSGSIGLADSVK | VGRGGGYFDY | 5.30 / nd / nd | 0 of 9 |
| GFTFVDYAMH | NISWNSGSICYADSVK | VGRGGGYFDY | 4.02 / 5.28 / 4.72 | 5 of 9 (4.55) |
| GFTFDDYAMH | SISWNSGSIHYADSVM | VGRGGGYFDY | nd / 5.03 / nd | 3 of 9 (4.54) |
| GFTFDDTAMH | GASWNSGSIGYADSVK | VGRGPGYFDY | nd / nd / nd | 0 of 9 |
| GFTFDDYAMH | GGSWNSGSIGYADSVK | VGRGGGYFFY | nd / nd / nd | 0 of 9 |
| GFTFDDYEMH | GISWNSGSYGYADSVK | VGRGGGYFDY | 5.55 / nd / 4.40 | 0 of 9 |
| GFTFDSYAMH | GISPNSGSIGYADSVK | VGRGGGYFCY | 0.92 / 0.95 / 0.47 | 5 of 9 (4.72) |
| GFTFDDYAMH | VISVNSGSIGYADSVK | VARGGGYFDY | 5.59 / 6.39 / nd | 3 of 9 (5.09) |

7 of these entries, quoted again:

| CDR-H1 | CDR-H2 | CDR-H3 | log10 Kd, replicates | empty controls |
|---|---|---|---|---|
| GFTFDDYEMH | GISWNSGSYGYADSVK | VGRGGGYFDY | 5.55 / nd / 4.40 | 0 of 9 |
| GFTFADYAMH | GISWNSGSIGYADSVK | VGRGIGYFDY | nd / nd / nd | 0 of 9 |
| GFTFDDYEMH | GISWNSGSIGYADSVK | VHGGGGYFDY | 3.57 / 5.89 / nd | 4 of 9 (3.54) |
| GFTFDCYAMH | GISWMSGSIGLADSVK | VGRGGGYFDY | 5.30 / nd / nd | 0 of 9 |
| GFTFDDYAMH | GISWNSGSIGYADRVK | VGRGFGWFDY | 2.72 / 2.95 / 2.18 | 0 of 9 |
| GFTFDDYAMH | GISWNSGSIEWADSVK | VGRGGGYFDI | nd / nd / nd | 0 of 9 |
| GFTFEDYAMH | GISWNSGSIGYADSFK | VGRQGGYFDY | 1.48 / 1.68 / 1.48 | 0 of 9 |

Background: pairings of library AAYL51 with three empty control strains gave a value in 21% of cases (median 4.54, 5th percentile 3.26). Values in that range, when seen in few replicates, are hard to tell from nonspecific mating. Also given: how often the same scFv was detected with the empty control strains, with their mean in brackets.